# Measured values reported in article PMC9481563, “Structural insights into the pSer/pThr dependent regulation of the SHP2 tyrosine phosphatase in insulin and CD28 signaling” (Nature Communications, 2022).
# Tested on: Wild-type SHP2
# Experiment: Additional DIFMUP kinetics (BioTek protocol), wild-type SHP2
# Details: different protocol (1 min read intervals, slope fitting to 3 initial points), BioTek plate reader; n = 3
row,SMILES,Vmax [µM/min]
1,Cc1cc(=O)oc2c(F)c(OP(=O)(O)O)c(F)cc12 [DIFMUP],285.4 ± 23.1

# Molecular target: inactive SHP2 catalytic domain Loopless (R362G+K364S) (Homo sapiens, UniProt Q06124, C459S/K364S/R362G)
# Experiment: Fluorescence polarization titrations, SHP2 Loopless
# Assay type: binding
# Details: competitive FP titration vs CF-ppIRS1 100 nM, protein fixed; n = 3 technical replicates
row,SMILES,Kd [µM]
1,CSCC[C@H](NC(=O)[C@@H]1CCCN1C(=O)[C@H](CCSC)NC(=O)[C@H](Cc1ccc(OP(=O)(O)O)cc1)NC(=O)[C@H](CC(=O)O)NC(=O)CNC(=O)[C@H](CO)NC(=O)CNC(=O)[C@H](CCCCN)NC(=O)[C@H](CCCNC(=N)N)NC(=O)CN)C(=O)N[C@@H](COP(=O)(O)O)C(=O)N1CCC[C@H]1C(=O)N[C@@H](CCCCN)C(=O)N[C@@H](CO)C(=O)O [ppIRS1],15.8 ± 2.33
2,CSCC[C@H](NC(=O)[C@H](Cc1ccc(OP(=O)(O)O)cc1)NC(=O)[C@H](CC(=O)O)NC(=O)[C@H](CO)NC(=O)[C@H](Cc1c[nH]cn1)NC(=O)[C@H](CC(C)C)NC(=O)[C@H](CC(C)C)NC(=O)[C@H](CCCNC(=N)N)NC(=O)[C@H](CO)NC(=O)[C@@H](N)CCCNC(=N)N)C(=O)N[C@@H](CC(N)=O)C(=O)N[C@@H](CCSC)C(=O)N[C@H](C(=O)N1CCC[C@H]1C(=O)N[C@@H](CCCNC(=N)N)C(=O)N[C@@H](CCCNC(=N)N)C(=O)O)[C@@H](C)OP(=O)(O)O [ppCD28],25.8 ± 1.94
3,CSCC[C@H](NC(=O)[C@@H]1CCCN1C(=O)[C@H](CCSC)NC(=O)[C@H](Cc1ccc(OP(=O)(O)O)cc1)NC(=O)[C@H](CC(=O)O)NC(=O)CNC(=O)[C@H](CO)NC(=O)CNC(=O)[C@H](CCCCN)NC(=O)[C@H](CCCNC(=N)N)NC(=O)CN)C(=O)N[C@@H](CO)C(=O)N1CCC[C@H]1C(=O)N[C@@H](CCCCN)C(=O)N[C@@H](CO)C(=O)O [p0IRS1],195 ± 21
4,CSCC[C@H](NC(=O)[C@H](Cc1ccc(OP(=O)(O)O)cc1)NC(=O)[C@H](CC(=O)O)NC(=O)[C@H](CO)NC(=O)[C@H](Cc1c[nH]cn1)NC(=O)[C@H](CC(C)C)NC(=O)[C@H](CC(C)C)NC(=O)[C@H](CCCNC(=N)N)NC(=O)[C@H](CO)NC(=O)[C@@H](N)CCCNC(=N)N)C(=O)N[C@@H](CC(N)=O)C(=O)N[C@@H](CCSC)C(=O)N[C@H](C(=O)N1CCC[C@H]1C(=O)N[C@@H](CCCNC(=N)N)C(=O)N[C@@H](CCCNC(=N)N)C(=O)O)[C@@H](C)O [p0CD28],94.3 ± 4.32
5,CC[C@H](C)[C@H](NC(=O)[C@H](CC(N)=O)NC(=O)[C@@H](NC(=O)[C@H](Cc1ccc(OP(=O)(O)O)cc1)NC(=O)[C@H](CCC(=O)O)NC(=O)CNC(=O)[C@@H]1CCCN1C(=O)[C@H](COP(=O)(O)O)NC(=O)[C@H](CCCCN)NC(=O)[C@@H]1CCCN1C(=O)[C@@H](N)CCC(=O)O)C(C)C)C(=O)N[C@@H](CCC(=O)O)C(=O)N[C@@H](Cc1ccccc1)C(=O)O [ppSRev-IRS1],5.71 ± 0.69
6,CC[C@H](C)[C@H](NC(=O)[C@H](CC(N)=O)NC(=O)[C@@H](NC(=O)[C@H](Cc1ccc(OP(=O)(O)O)cc1)NC(=O)[C@H](CCC(=O)O)NC(=O)CNC(=O)[C@@H]1CCCN1C(=O)[C@H](CO)NC(=O)[C@H](CCCCN)NC(=O)[C@@H]1CCCN1C(=O)[C@@H](N)CCC(=O)O)C(C)C)C(=O)N[C@@H](CCC(=O)O)C(=O)N[C@@H](Cc1ccccc1)C(=O)O [p0SRev-IRS1],29.8 ± 3.56
